What was measured:
[1] = test system: enteric pathogens (E. coli, Salmonella, Listeria monocytogenes, Klebsiella); assay: Bacterial growth panel, OD600 growth-curve AUC ratio (heat map); format: cell-based; conditions: 40 mM (BA, EBA, PBA), 20 mM (BBA), 10 mM (PeBA), 5 mM (HBA, SBA), 1 mM (OBA), 0.5 mM (DBA), 2 mM (DoDBA), 20 mM (FMPBA); 24-48 hrs
[2] = test system: Gram Positive aerobes and probiotic species (Lactobacillus, Bifidobacteria); assay: Bacterial growth panel, impact on non-target species (selectivity); format: cell-based; conditions: same concentrations as growth panel

**Q.** How did the “antibacterial activity / potency against enteric pathogens (growth, AUC+test compound:AUC−test compound)” value [1] turn out when `CCCB(O)O` [PBA] was run?
**A.** The value was “higher potency against enteropathogens”.

**Q.** And the “selectivity: impact on Gram Positive aerobes and probiotic species” value [2]?
**A.** Its value is “less impact on probiotic Lactobacillus, Bacillus, and Gram Positive aerobes”.

Source: patent US12589103B2, “Antimicrobial and antiviral effects of C2-C7 alkyl boronic acids” (CORNELL UNIVERSITY, priority 2019, dated 2026)
